Target: Mu-type opioid receptor (Rattus norvegicus, UniProt P33535)

Amino acid sequences for entries named in this document (tags omitted).
UniProt P33535, whole entry: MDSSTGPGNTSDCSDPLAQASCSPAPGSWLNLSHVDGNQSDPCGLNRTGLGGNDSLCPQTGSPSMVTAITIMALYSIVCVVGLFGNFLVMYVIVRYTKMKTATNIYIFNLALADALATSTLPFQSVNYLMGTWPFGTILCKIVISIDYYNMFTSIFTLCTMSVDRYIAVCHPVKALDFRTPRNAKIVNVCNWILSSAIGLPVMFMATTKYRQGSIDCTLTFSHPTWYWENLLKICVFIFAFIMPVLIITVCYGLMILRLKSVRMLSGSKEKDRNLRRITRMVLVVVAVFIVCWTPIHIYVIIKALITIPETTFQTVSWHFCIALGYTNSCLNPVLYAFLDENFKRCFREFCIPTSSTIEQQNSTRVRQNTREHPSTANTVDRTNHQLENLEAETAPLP

## C[C@@H](NC(=O)[C@@H](N)Cc1ccc(O)cc1)C(=O)NCC(=O)N(C)[C@@H](Cc1ccccc1)C(=O)NCCO [[tyrosyl-3,5-3H(N)]-D-Ala2-Mephe4-glyol5-enkephalin]
  Ki: 0.365 nM

— BindingDB's records for PubMed 7562497 (R. W. Johnson Pharmaceutical Research Institute, 1995)
